# Measured values from PubChem BioAssay AID540276 (National Center for Advancing Translational Sciences (NCATS), 2011).
# The entries are a selection whose mix differs from that of the whole data set. Some tests of the compounds listed are not included; inactive here does not mean inactive elsewhere. Results filed as inconclusive are left out. Active and inactive are the calls of the source. Calls follow the shape of the full dose curve; tested in HEK293 cells.
# Experiment: qHTS for inhibitors of binding or entry into cells for Marburg Virus
# Details: Marburg virus pseudotyped entry inhibition, cell reporter; series mostly up to 37.8 µM; activity change, negative = inhibition: at the top concentration
# % is scaled to controls: 0 for no effect and ±100 for the full control effect; potency is read from the fitted curve at half-maximal effect.
Structure (SMILES),Potency,"activity change, negative = inhibition"
O=C(NCC1(N2CCCCC2)CCCCC1)c1cccc(Cl)c1,active: 2 µM,–
CC(C)N1C(=O)CC2(CCN(CCOC(=O)C(O)(c3ccccc3)c3ccccc3)CC2)C1=O,–,inactive: 0.302%
